Target: actin (Mg-ATP-actin, chicken muscle; 33% atto488-labelled) (chicken) (UniProt P68139)

Substance: Dd VASP (MBP-VASP, full-length) (from UniProt Q5TJ65 1-380) (natural protein)
- decrease in the persistence length of filaments (held by low-density NEM-myosin) with VASP in solution: 50%

Substance: Dd VASP ΔGAB (VASP(delta198-220)) (from UniProt Q5TJ65 1-380) (natural protein)
- decrease in the persistence length of filaments (held by low-density NEM-myosin) with VASP ΔGAB in solution: 50%

Substance: NEM-myosin (chemically inactivated myosin II motor protein) (complex)
- decrease in the persistence length of filaments (held by low-density NEM-myosin) with NEM-myosin in solution: 30%

Substance: filamin
- decrease in the persistence length of filaments (held by low-density NEM-myosin) with filamin in solution: 30%

Source: article PMC4375888
